Among the data in ChEMBL document CHEMBL1145512, “Three classes of glucocerebrosidase inhibitors identified by quantitative high-throughput screening are chaperone leads for Gaucher disease” (Proc Natl Acad Sci U S A, 2007) are IC50, Ki and AC50 values, retold here.

Test [1] addresses T1, Lysosomal acid glucosylceramidase (Homo sapiens, UniProt P04062).
T1 sequence (P04062 whole entry): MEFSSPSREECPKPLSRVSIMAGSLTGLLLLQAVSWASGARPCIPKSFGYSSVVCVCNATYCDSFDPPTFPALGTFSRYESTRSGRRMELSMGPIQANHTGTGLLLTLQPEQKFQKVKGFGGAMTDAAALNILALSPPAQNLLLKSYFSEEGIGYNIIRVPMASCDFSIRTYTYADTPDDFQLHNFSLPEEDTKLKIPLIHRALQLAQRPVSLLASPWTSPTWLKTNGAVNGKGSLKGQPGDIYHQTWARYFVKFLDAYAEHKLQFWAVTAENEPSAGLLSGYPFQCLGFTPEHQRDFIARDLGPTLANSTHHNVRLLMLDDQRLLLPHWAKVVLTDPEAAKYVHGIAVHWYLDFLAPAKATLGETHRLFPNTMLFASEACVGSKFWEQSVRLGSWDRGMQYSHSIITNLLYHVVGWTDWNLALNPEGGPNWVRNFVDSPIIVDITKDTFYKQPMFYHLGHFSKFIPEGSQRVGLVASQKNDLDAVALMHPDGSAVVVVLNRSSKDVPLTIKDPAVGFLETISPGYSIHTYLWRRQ
Description: Inhibition of recombinant wild-type glucocerebrosidase.

The target in test [2] is T1, Lysosomal acid glucosylceramidase. Description: Effect on recombinant wild-type glucocerebrosidase.

A word on the IC50: it is the concentration needed to halve the response being measured. By Ki is commonly meant a dissociation constant, usually derived from enzyme kinetics or from competition with a known ligand. Turning to `Cc1cc(N2CCOCC2)nc2ccc(NC(=O)C3CCCCC3)cc12`, in test [1], the IC50 was determined as 0.031 µM and the Ki came to 0.021 µM.

By AC50 is commonly meant the midpoint of the concentration-response curve, whichever way the signal moves. Turning to `COc1ccc(Cl)cc1Nc1nc(NCCO)nc(N2CCCC2)n1`, in test [1], the IC50 amounted to 0.43 µM and the Ki was found to be 0.32 µM. Also, in test [2], the AC50 was 0.87 µM.

On to `CCc1nnc(NC(=O)c2ccc(NS(=O)(=O)c3ccccc3)cc2)s1`, for which, in test [1], the IC50 came to 0.103 µM and the Ki stood at 0.052 µM. Also, in test [2], the AC50 is 0.07 µM.
